Chains of the proteins cited; added tags and fusions are not shown. Lines headed by an entry give the natural chain unless they say otherwise; changes in a name come on top. Residues count along the entry.
UniProt P62508, 222-458 L345A limits assumed: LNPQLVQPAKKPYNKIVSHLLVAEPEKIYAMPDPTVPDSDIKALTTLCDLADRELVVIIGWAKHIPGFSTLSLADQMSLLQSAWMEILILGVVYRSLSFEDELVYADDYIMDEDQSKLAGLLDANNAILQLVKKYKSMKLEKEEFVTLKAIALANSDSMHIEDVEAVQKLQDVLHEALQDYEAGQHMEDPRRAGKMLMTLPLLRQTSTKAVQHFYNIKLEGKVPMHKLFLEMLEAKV
UniProt P62508, 222-458 L345V limits assumed: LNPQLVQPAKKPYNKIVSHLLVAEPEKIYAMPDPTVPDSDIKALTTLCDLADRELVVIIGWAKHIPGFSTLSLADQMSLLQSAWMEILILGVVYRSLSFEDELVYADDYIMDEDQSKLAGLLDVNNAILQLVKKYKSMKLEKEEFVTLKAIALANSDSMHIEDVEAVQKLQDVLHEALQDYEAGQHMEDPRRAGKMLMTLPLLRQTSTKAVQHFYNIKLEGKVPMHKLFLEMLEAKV
UniProt P62508, 222-458 N346A limits assumed: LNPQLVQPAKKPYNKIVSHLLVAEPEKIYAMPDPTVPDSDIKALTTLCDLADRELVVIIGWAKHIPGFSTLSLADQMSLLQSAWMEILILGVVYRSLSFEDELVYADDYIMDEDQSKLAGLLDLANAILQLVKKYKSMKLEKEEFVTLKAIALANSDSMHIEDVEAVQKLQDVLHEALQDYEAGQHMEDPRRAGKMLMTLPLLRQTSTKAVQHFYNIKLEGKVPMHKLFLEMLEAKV
UniProt P62508, 222-458 N346G limits assumed: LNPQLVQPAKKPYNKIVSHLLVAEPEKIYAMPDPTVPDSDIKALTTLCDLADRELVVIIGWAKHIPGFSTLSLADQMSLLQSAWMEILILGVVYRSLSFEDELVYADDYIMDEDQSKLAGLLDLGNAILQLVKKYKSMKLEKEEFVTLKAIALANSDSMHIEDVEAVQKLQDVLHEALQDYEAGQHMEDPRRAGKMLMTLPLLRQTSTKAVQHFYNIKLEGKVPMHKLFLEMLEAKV
UniProt P62508, 222-458 N346Y limits assumed: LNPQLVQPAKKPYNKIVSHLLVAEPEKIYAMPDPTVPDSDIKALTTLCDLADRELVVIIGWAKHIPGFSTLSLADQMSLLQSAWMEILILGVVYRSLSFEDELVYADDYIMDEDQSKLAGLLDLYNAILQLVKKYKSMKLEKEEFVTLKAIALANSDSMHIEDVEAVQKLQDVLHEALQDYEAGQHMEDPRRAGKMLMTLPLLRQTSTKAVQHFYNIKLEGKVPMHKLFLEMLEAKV
UniProt P62508, 222-458 Y330A limits assumed: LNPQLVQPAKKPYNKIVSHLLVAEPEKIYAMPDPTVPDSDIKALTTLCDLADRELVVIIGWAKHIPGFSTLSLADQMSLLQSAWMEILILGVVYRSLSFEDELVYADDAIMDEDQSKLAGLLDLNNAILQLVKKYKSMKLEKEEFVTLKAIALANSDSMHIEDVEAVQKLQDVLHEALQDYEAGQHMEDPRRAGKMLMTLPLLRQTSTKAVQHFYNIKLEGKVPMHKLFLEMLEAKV
UniProt P62508, 222-458 Y330F limits assumed: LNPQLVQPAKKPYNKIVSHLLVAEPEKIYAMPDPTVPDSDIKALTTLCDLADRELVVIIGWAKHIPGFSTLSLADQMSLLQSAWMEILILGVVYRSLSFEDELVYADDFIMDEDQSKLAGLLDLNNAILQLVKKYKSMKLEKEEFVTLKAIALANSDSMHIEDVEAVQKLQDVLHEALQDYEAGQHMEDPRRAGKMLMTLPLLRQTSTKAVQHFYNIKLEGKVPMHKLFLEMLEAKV
UniProt P62508, 222-458 limits assumed: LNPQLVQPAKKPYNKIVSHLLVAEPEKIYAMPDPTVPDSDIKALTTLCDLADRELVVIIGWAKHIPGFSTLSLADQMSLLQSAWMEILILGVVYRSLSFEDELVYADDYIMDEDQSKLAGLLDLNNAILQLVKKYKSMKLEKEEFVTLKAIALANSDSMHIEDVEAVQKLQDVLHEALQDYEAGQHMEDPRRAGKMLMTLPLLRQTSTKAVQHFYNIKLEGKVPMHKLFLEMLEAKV
UniProt P62508, 222-458 H434A limits assumed: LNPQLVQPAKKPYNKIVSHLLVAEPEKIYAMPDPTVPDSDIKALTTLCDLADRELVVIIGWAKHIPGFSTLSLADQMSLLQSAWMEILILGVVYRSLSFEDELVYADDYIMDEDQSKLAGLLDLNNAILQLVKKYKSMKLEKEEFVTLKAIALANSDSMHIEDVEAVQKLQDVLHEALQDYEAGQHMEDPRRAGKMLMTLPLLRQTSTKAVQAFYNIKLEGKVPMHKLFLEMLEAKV
UniProt P62508, 222-458 H434F limits assumed: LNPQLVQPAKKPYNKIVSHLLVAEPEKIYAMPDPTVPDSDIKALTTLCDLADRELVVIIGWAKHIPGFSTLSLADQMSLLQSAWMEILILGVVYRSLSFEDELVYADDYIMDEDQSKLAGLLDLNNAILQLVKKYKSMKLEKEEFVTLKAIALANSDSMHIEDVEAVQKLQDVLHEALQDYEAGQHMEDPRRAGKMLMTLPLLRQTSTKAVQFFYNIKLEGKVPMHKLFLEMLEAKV
UniProt P62508, 222-458 I349A limits assumed: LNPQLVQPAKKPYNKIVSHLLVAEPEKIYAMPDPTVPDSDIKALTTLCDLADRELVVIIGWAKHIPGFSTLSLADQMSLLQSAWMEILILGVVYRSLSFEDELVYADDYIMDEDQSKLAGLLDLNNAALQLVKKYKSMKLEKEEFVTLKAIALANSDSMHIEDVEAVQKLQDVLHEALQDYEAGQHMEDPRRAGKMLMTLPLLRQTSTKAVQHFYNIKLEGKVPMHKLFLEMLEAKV
UniProt P62508, 222-458 I349L limits assumed: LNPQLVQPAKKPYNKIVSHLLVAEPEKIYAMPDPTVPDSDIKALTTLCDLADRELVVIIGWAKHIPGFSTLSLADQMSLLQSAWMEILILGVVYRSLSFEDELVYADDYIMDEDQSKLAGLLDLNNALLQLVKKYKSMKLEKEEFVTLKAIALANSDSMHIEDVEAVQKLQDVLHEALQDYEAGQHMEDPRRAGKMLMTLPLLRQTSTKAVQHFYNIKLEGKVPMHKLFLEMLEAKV
UniProt P62508, 222-458 I349V limits assumed: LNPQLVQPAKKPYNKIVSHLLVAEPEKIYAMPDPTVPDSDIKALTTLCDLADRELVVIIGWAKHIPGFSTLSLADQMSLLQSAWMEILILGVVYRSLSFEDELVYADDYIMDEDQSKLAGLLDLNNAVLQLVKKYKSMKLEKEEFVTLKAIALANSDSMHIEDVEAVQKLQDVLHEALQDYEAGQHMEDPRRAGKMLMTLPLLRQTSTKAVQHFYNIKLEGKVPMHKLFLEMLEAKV
UniProt P62508, 222-458 K430A limits assumed: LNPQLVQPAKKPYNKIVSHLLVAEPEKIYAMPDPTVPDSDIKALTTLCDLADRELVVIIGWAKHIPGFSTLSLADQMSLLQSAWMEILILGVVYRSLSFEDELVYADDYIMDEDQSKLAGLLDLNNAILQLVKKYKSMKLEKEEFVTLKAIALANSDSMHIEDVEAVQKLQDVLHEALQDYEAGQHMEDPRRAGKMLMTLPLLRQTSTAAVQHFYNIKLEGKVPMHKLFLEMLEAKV
UniProt P62508, 222-458 L265A limits assumed: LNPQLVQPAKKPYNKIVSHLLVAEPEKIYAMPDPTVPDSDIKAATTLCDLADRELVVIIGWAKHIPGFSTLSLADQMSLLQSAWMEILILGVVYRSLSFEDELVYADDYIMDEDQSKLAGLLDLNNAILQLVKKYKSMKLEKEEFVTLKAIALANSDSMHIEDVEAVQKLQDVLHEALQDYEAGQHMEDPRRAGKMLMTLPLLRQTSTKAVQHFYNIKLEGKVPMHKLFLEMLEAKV
UniProt P62508, 222-458 L324A limits assumed: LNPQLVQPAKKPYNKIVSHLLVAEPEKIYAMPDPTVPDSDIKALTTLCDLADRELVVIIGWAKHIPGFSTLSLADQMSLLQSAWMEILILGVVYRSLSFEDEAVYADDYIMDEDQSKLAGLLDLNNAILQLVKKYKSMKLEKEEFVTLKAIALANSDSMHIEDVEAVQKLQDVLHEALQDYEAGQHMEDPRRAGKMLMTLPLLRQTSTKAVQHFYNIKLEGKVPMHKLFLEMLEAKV
UniProt P62508, 222-458 L342A limits assumed: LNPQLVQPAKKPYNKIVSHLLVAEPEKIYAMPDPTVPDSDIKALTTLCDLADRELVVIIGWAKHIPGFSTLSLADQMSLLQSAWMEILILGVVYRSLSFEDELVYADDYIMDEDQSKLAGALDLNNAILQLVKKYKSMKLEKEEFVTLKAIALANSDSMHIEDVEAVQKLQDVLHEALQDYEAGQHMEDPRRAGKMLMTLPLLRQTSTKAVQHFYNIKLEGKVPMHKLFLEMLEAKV
UniProt P62508, 222-458 L342I limits assumed: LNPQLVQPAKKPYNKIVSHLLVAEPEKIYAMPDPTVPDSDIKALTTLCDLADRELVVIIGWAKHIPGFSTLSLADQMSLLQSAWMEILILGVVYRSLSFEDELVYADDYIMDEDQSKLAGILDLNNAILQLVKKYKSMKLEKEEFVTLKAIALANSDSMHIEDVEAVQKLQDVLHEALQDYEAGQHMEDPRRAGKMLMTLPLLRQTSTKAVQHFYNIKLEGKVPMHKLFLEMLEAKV
UniProt P62508, 222-458 L342V limits assumed: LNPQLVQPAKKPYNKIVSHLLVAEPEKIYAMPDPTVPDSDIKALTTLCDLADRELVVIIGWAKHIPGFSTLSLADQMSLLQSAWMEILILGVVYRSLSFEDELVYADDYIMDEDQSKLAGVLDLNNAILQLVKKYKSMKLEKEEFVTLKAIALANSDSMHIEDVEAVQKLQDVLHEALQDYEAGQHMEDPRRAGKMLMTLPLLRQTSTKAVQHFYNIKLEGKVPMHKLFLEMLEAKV
UniProt P62508, 222-458 L345I limits assumed: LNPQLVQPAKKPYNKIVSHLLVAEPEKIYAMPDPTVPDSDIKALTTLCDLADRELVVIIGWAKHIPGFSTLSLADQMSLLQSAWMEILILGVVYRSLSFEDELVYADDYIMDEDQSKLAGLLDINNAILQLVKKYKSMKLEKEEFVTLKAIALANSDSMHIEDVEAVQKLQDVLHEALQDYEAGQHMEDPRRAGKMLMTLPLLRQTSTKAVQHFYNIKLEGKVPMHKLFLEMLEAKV
UniProt P62508, 222-458 N346Q limits assumed: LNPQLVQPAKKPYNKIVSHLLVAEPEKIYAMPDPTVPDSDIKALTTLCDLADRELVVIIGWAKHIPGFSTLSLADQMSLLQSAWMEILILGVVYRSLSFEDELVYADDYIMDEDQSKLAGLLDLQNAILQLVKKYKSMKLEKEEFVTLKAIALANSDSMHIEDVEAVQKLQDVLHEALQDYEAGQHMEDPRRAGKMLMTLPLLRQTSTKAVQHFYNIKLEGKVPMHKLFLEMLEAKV

In publication PMC4076284, “A Characteristic Back Support Structure in the Bisphenol A-Binding Pocket in the Human Nuclear Receptor ERRγ” (PLoS ONE, 2014):

Experiments:
Conditions in all cases: tested as the radiolabelled form
[1] = biological target: Asn346Ala-ERRγ mutant receptor (GST-fused LBD) (Homo sapiens, UniProt P62508, N346A); test: Saturation binding assay using [^3H]BPA
[2] = biological target: Asn346Gln-ERRγ mutant receptor (GST-fused LBD) (Homo sapiens, UniProt P62508, N346Q); test: Saturation binding assay using [^3H]BPA
[3] = biological target: Asn346Gly-ERRγ mutant receptor (GST-fused LBD) (Homo sapiens, UniProt P62508, N346G); test: Saturation binding assay using [^3H]BPA
[4] = biological target: Asn346Tyr-ERRγ mutant receptor (GST-fused LBD) (Homo sapiens, UniProt P62508, N346Y); test: Saturation binding assay using [^3H]BPA
[5] = biological target: GST-fused wild-type ERRγ-LBD (Homo sapiens, UniProt P62508); test: Saturation binding assay using [^3H]BPA
[6] = biological target: His434Ala-ERRγ mutant receptor (GST-fused LBD) (Homo sapiens, UniProt P62508, H434A); test: Saturation binding assay using [^3H]BPA
[7] = biological target: His434Phe-ERRγ mutant receptor (GST-fused LBD) (Homo sapiens, UniProt P62508, H434F); test: Saturation binding assay using [^3H]BPA
[8] = biological target: Ile349Ala-ERRγ mutant receptor (GST-fused LBD) (Homo sapiens, UniProt P62508, I349A); test: Saturation binding assay using [^3H]BPA
[9] = biological target: Ile349Leu-ERRγ mutant receptor (GST-fused LBD) (Homo sapiens, UniProt P62508, I349L); test: Saturation binding assay using [^3H]BPA
[10] = biological target: Ile349Val-ERRγ mutant receptor (GST-fused LBD) (Homo sapiens, UniProt P62508, I349V); test: Saturation binding assay using [^3H]BPA
[11] = biological target: Leu265Ala-ERRγ mutant receptor (GST-fused LBD) (Homo sapiens, UniProt P62508, L265A); test: Saturation binding assay using [^3H]BPA
[12] = biological target: Leu324Ala-ERRγ mutant receptor (GST-fused LBD) (Homo sapiens, UniProt P62508, L324A); test: Saturation binding assay using [^3H]BPA
[13] = biological target: Leu342Ala-ERRγ mutant receptor (GST-fused LBD) (Homo sapiens, UniProt P62508, L342A); test: Saturation binding assay using [^3H]BPA
[14] = biological target: Leu342Ile-ERRγ mutant receptor (GST-fused LBD) (Homo sapiens, UniProt P62508, L342I); test: Saturation binding assay using [^3H]BPA
[15] = biological target: Leu342Val-ERRγ mutant receptor (GST-fused LBD) (Homo sapiens, UniProt P62508, L342V); test: Saturation binding assay using [^3H]BPA
[16] = biological target: Leu345Ala-ERRγ mutant receptor (GST-fused LBD) (Homo sapiens, UniProt P62508, L345A); test: Saturation binding assay using [^3H]BPA
[17] = biological target: Leu345Ile-ERRγ mutant receptor (GST-fused LBD) (Homo sapiens, UniProt P62508, L345I); test: Saturation binding assay using [^3H]BPA
[18] = biological target: Leu345Val-ERRγ mutant receptor (GST-fused LBD) (Homo sapiens, UniProt P62508, L345V); test: Saturation binding assay using [^3H]BPA
[19] = biological target: Lys430Ala-ERRγ mutant receptor (GST-fused LBD) (Homo sapiens, UniProt P62508, K430A); test: Saturation binding assay using [^3H]BPA
[20] = biological target: Tyr330Ala-ERRγ mutant receptor (GST-fused LBD) (Homo sapiens, UniProt P62508, Y330A); test: Saturation binding assay using [^3H]BPA
[21] = biological target: Tyr330Phe-ERRγ mutant receptor (GST-fused LBD) (Homo sapiens, UniProt P62508, Y330F); test: Saturation binding assay using [^3H]BPA
[22] = system: ERRγ mutant receptors; test: [^3H]BPA saturation and/or competitive binding: ranges stated over several ERRγ mutants or both assays

CC(C)(c1ccc(O)cc1)c1ccc(O)cc1 [BPA, bisphenol A]
Specific binding ([1]; saturation binding): ca. 90 % of the total binding
Receptor density for [^3H]BPA, B max [1]: 18.3±0.69 nmol/mg protein
Receptor density for [^3H]BPA, B max [2]: 6.78±0.33 nmol/mg protein
Specific binding ([3]; saturation binding): ca. 70 % of the total binding
Receptor density for [^3H]BPA, B max [3]: 11.8±0.57 nmol/mg protein
Specific binding ([4]; saturation binding): ca. 60 % of the total binding
Receptor density for [^3H]BPA, B max [4]: 9.37±0.42 nmol/mg protein
Receptor density for [^3H]BPA, B max [5]: 18.40±0.78 nmol/mg protein
Receptor density for [^3H]BPA, B max [6]: NSB
Receptor density for [^3H]BPA, B max [7]: 6.35±0.57 nmol/mg protein
Receptor density for [^3H]BPA, B max [8]: 5.92±0.12 nmol/mg protein
Receptor density for [^3H]BPA, B max [9]: 9.33±1.23 nmol/mg protein
Receptor density for [^3H]BPA, B max [10]: 8.84±0.86 nmol/mg protein
Receptor density for [^3H]BPA, B max [11]: NSB
Receptor density for [^3H]BPA, B max [12]: NSB
Receptor density for [^3H]BPA, B max [13]: NSB
Receptor density for [^3H]BPA, B max [14]: 2.75±0.50 nmol/mg protein
Receptor density for [^3H]BPA, B max [15]: 2.87±0.34 nmol/mg protein
Drop in receptor affinity vs wild-type ([16]; saturation binding): approximately 3.5 fold
Receptor density for [^3H]BPA, B max [16]: 13.6±0.41 nmol/mg protein
Receptor density for [^3H]BPA, B max [17]: 4.07±0.21 nmol/mg protein
Decrease in affinity vs wild-type ([18]; saturation binding): 10 fold
Receptor density for [^3H]BPA, B max [18]: 7.72±0.55 nmol/mg protein
Receptor density for [^3H]BPA, B max [19]: 4.34±0.44 nmol/mg protein
Reduction in K d value vs wild-type ([20]; saturation binding): more than 50 fold
Receptor density for [^3H]BPA, B max [20]: 0.91±0.22 nmol/mg protein
Reduction in K d value vs wild-type ([21]; saturation binding): approximately 2 fold
Receptor density for [^3H]BPA, B max [21]: 7.37±0.33 nmol/mg protein
Reduction in affinity vs wild-type ([22]; Ile349Ala mutant, saturation and competitive binding (Tables 1 and 2)): 3-4 fold
Activity decrements vs wild-type ([22]; Ile349Val and Ile349Leu mutants, saturation binding (Table 1)): 8-65%
